## Binding of CDR-mutated scFvs to a peptide of the spike HR2 region

Values reported by Li et al. 2023, doi:10.1038/s41467-023-39022-2 (FLAb copy).

Target peptide (SARS-CoV-2 spike, HR2 region): PDVDLGDISGINAS

Parent: Ab-14, a human scFv built as VH, a (GGGGS)3 linker, VL. Only the CDRs of the light chain vary.
VH: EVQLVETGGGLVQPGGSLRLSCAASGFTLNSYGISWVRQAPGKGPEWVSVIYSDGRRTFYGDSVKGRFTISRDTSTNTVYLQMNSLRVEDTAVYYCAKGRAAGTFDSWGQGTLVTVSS
VL: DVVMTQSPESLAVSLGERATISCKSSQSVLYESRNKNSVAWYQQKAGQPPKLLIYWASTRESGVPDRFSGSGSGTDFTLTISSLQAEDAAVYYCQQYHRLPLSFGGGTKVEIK

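These sequences belong to a second round, designed from the earlier measurements on random variants of the parent. Several design methods are mixed in this list. In AlphaSeq, yeast of one mating type display the scFv and yeast of the other type display the target. After mating in shaken culture at 30 °C for 16 h, diploids were selected and their barcode pairs sequenced. Read counts were normalised to the haploid input and turned into Kd by a linear fit to BCL2-family pairs of known affinity, for each replicate. The assay was run in six technical replicates.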

Positions count from residue 1 of the parent VL; S25I puts I in place of S.
This list holds designs with at most six substitutions.
Kd is apparent (estimated from mating counts) and averaged on the log scale over replicates with a signal. Smaller is tighter.
Where no diploid with the target was found in any replicate, the entry reads "nd": below detection, most likely a poor binder, though not proof of it.

Variant S25I/S26E/V29M/W56N/S62V showed 560 pM (6 of 6 replicates; controls 1 of 18). With S25I/L30D/S33D/W56N the result was 2.8 nM (6 of 6 replicates; controls 0 of 18). Variant S25L/V29W/W56D/T59Q gave 3.7 nM (6 of 6 replicates; controls 0 of 18). Variant L30T gave 65 nM (6 of 6 replicates; controls 1 of 18). For S25F/N35T/K36S/S38M/W56N, the assay gave 2.7 nM (6 of 6 replicates; controls 3 of 18). With E32P/W56Y/S58Q the result was nd (0 of 6 replicates; controls 0 of 18).

With V29H the result was 32 nM (6 of 6 replicates; controls 0 of 18). Variant S25M/V29N/L30P/K36W/W56N/T59K gave 2.8 nM (6 of 6 replicates; controls 0 of 18). Variant S25M/S26E/S28G/L30M/W56G/T59V showed 480 pM (6 of 6 replicates; controls 1 of 18). For K24H/S25L/V29E/W56N/E61C, the assay gave 6.8 nM (6 of 6 replicates; controls 0 of 18). Variant K36N/E61A/L102W showed 240 nM (2 of 6 replicates; controls 0 of 18). Variant S26Q/S28N/W56G showed 640 pM (6 of 6 replicates; controls 2 of 18).

Variant S26L/Q27W/R34N/W56H/T59Q/S62D showed 2.7 nM (6 of 6 replicates; controls 0 of 18). Variant L30T/Y31F/W56D gave 1.1 nM (6 of 6 replicates; controls 3 of 18). Variant S38N/L100W gave 130 nM (1 of 6 replicates; controls 0 of 18). With S25L/S26Q/S28G/V29A/W56G the result was 570 pM (6 of 6 replicates; controls 0 of 18). With S25L/N35V/W56N/E61L the result was 300 pM (6 of 6 replicates; controls 0 of 18). With S26E/W56D/A57D the result was 45 nM (6 of 6 replicates; controls 1 of 18).

Variant R34F/W56N showed 9.8 nM (6 of 6 replicates; controls 0 of 18). For S26G/S28G/W56G/S58W, the assay gave 2.6 nM (6 of 6 replicates; controls 0 of 18). Variant S26G/S28G/L30E/S38H/W56G gave 1.9 nM (6 of 6 replicates; controls 0 of 18). For S25L/V29G/W56E, the assay gave 500 pM (6 of 6 replicates; controls 0 of 18). Variant Q27D/L30G/E61V/S62E/P101C showed nd (0 of 6 replicates; controls 0 of 18). For S25Q/W56Q, the assay gave 780 pM (6 of 6 replicates; controls 1 of 18).

Variant S25L/S26Q/V29E/W56N/E61M/S62Q gave 650 pM (6 of 6 replicates; controls 0 of 18). Variant S25M/V29K/Y31V/W56K gave 7.8 nM (6 of 6 replicates; controls 1 of 18). Variant S25M/W56N/S103M showed 980 pM (6 of 6 replicates; controls 2 of 18). Variant S26I/R34N gave 45 nM (2 of 6 replicates; controls 0 of 18). Variant S25L/V29T/K36P gave 4.6 nM (6 of 6 replicates; controls 1 of 18). Variant S25L/S26V/Q27N/V29T/N35Q/W56N showed 760 pM (5 of 6 replicates; controls 0 of 18).

Variant S26G/S28Y/E32T/W56G/H98T showed 11 nM (6 of 6 replicates; controls 0 of 18). With K36Y/S38C/S62D/S103A the result was nd (0 of 6 replicates; controls 0 of 18). With S25Q/S33W/K36S/W56D the result was 2.7 nM (6 of 6 replicates; controls 0 of 18). With R34N/R99M the result was 78 nM (6 of 6 replicates; controls 0 of 18). Variant S25F/S26M/V29M/L30G/W56D/E61R showed 630 pM (6 of 6 replicates; controls 2 of 18).

A selection of 4 entries from above:

For S38N/L100W, the assay gave 130 nM (1 of 6 replicates; controls 0 of 18).
For K36Y/S38C/S62D/S103A, the assay gave nd (0 of 6 replicates; controls 0 of 18).
For S25Q/W56Q, the assay gave 780 pM (6 of 6 replicates; controls 1 of 18).
For K36N/E61A/L102W, the assay gave 240 nM (2 of 6 replicates; controls 0 of 18).

Nonspecific signal, from three strains lacking the peptide, appeared in 4% of pairings of all light chain designs, centred on 430 nM (5% of these signals below 38 nM); values are not corrected for it. Also given: how often the same scFv was detected with the empty control strains.
The authors' rule: three or more of the six replicates give a measured affinity, fewer mean a poor binder.
The range of this assay differs from that of the first round, and the authors advise against merging the two.